Yeast UUG start = alters start codon recognition fidelity in yeast. S. cerevisiae UUG-firefly luciferase reporter, luminescence/redox ratio. activity score, % at 18.7 µM. 0.13% of 350,000 active. AID 602363;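 active = replicate mean at a twofold rise or more, about +100% in these data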;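 also: firefly luciferase made from a UUG start codon reports start codon fidelity; reporter light over untreated wells divided by growth signal over untreated wells; some hits fall short of that in this replicate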
MC4R barr agon = MC4R agonists recruiting beta-arrestin, primary screen, cell-based, luminescence, agonist arm of biased-ligand search. activation, % at 8.9 µM. 0.98% of 360,000 active. AID 540308, 2011. U2OS MC4R beta-arrestin complementation; percent of melanotan II response, DMSO zero;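 active = activation above a per-plate cutoff, the mean activation of sample wells on that plate plus 3 SD, cut at about 8% in these data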
HDAC3 inhib = HDAC3 deacetylase inhibitors, primary screen, biochemical, fluorescence, cell-free homogeneous; 0.15% of 320,000 active; AID 2718, 2010; inhibition, % at 8.3 µM; recombinant HDAC3, fluorogenic peptide/trypsin coupled; in the data active = inhibition above about 26%, passing the limit was not always enough
MC4R antagonist = MC4R antagonists of cAMP signaling, primary screen, cell-based, TR-FRET, antagonist arm of biased-ligand search | Melanocortin receptor 4 (Homo sapiens), P32245 | MC4R-expressing cells, MTII-stimulated cAMP, LANCE TR-FRET | inhibition, % at 6.5 µM | 0.48% of 360,000 active | AID 540295, 2011;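 active = inhibition above its plate's cutoff, the mean of tested wells on that plate plus 3 SD, cut at about 29% in these data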;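 note: 0% = Melanotan II alone and 100% = Melanotan II plus saturating MCL0020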
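System: U2OS cells stably expressing human melanocortin 4 receptor (MC4R). Reagent: Melanotan II challenge after compound preincubation. Doses: 6.5 µM. Times: 30-min compound, 1-h challenge, 1-h detection, room temperature. Measured by: TR-FRET with Eu-cAMP and labeled anti-cAMP, 671 nm. Replicates: singlicate.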
ALR inh = inhibitors of human sulfhydryl oxidase ALR; 290,000 tested, 3.8% active; inhibition, % (test concentration not listed); AID 485317; P55789; purified ALR, DTT oxidation, H2O2 HRP-luminol luminescence;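 active = mean and each replicate at 75% or more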;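 also: stock transfer was 7.5 nL into about 7.5 µL; 0% = neutral wells and 100% = wells with inactivated enzyme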
NALP1 inh = NALP1 inflammasome inhibitors in reconstituted yeast, colorimetric, S. cerevisiae, triplicate retest; inhibition, % at 10 µM; S. cerevisiae NALP1/ASC/caspase-1 growth, X-gal OD620, 72 h; 0.61% of 280,000 active; in the data active = inhibition mostly above about 24%, no sharp cut-off; inactive = mostly below about 32%
Starred values were filed as active, the others as inactive; x = no result. Hits are enriched below; roughly 4.2% of the tested compounds scored in any of these assays.

Sequences of proteins named here, by UniProt entry; tags and fusion partners are left off.
Melanocortin receptor 4 (Homo sapiens), P32245, UniProt P32245, whole entry, looked up: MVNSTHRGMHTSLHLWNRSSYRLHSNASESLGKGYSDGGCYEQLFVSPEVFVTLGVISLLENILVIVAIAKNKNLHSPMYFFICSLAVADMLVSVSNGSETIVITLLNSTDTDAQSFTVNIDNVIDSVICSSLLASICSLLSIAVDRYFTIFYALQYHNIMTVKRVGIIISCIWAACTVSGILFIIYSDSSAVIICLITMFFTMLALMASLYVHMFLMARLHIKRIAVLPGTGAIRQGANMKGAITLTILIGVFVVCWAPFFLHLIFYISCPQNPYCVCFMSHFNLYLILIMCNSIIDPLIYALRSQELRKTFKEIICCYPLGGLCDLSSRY

nr	compound	Yeast UUG start	MC4R barr agon	HDAC3 inhib
1	CCN(CC)C(=O)CSc1nnc(-c2cc3ccccc3cc2O)n1CC	-6.5	-0.8	-3.7
2	CCn1c(-c2cc3ccccc3cc2O)n[nH]c1=S	-12.5	-1.2	-2.1
3	C[C@@H]1CN([C@H](C)CO)S(=O)(=O)c2ccc(C#CCN(C)C)cc2O[C@H]1CN(C)Cc1ccc(F)cc1	-4.3	x	x
4	CCC(=O)N(C)C[C@H]1Oc2cc(-c3cccc(F)c3)ccc2S(=O)(=O)N([C@H](C)CO)C[C@@H]1C	-13.5	x	x
5	CCOC(=O)C1CCCN(C(=O)CCn2nnnc2CN2CCOCC2)C1 (stereo not given)	-22.2	-1.4	-4.0
6	CCN(CC)C(=O)C1CCCN(C(=O)CCn2nnnc2CN2CCOCC2)C1 (stereo not given)	-23.8	-2.8	-3.9
7	Cc1cc(NC(=S)Nc2ccc(C)c(Cl)c2)n[nH]1	x	-2.1	-6.9
8	COc1ccc(NC(=S)Nc2cc(C)[nH]n2)cc1Cl	x	2.0	-8.8
9	CCCCN(CCCC)c1ccc(C(=O)c2ccccc2C(=O)O)c(O)c1	-10.1	-0.6	19.1
10	CN(C)c1ccc(C(=O)c2ccccc2C(=O)O)c(O)c1	4.0	-1.4	8.1
11	CCCc1nnc(SCc2ccc(C(=O)OC)o2)n1N	-4.5	1.6	6.5
12	CCc1nnc(SCc2ccc(C(=O)OC)o2)n1N	-1.5	3.0	0.3

nr	MC4R antagonist	ALR inh	NALP1 inh
1	3.8	84.8*	-3.3
2	6.1	98.7*	-32.9
3	x	x	x
4	x	x	x
5	-1.0	-17.7	34.7*
6	-4.3	-10.6	3.7
7	3.0	97.0*	9.1
8	9.0	1.4	x
9	4.2	89.8*	11.9
10	8.0	-6.2	12.4
11	-1.5	-11.5	5.6
12	-1.7	97.4*	21.4

Next records follow:
nr	compound	Yeast UUG start	MC4R barr agon	HDAC3 inhib
13	CO[C@H]1CN(C)C(=O)c2cc(NS(=O)(=O)c3ccccc3)ccc2OC[C@@H](C)N(Cc2nccs2)C[C@H]1C	-1.3	x	x
14	CC(C)NC(=O)Nc1ccc2c(c1)CC(=O)N([C@@H](C)CO)C[C@@H](C)[C@H](CN(C)C(=O)NC(C)C)O2	-3.9	x	x
15	O=C(C1CCC1)N1CCCCN2[C@H](CO)[C@@H](c3ccc(-c4cccc(F)c4)cc3)[C@@H]2C1	0.7	x	x
16	CCn1c(SCc2nc3sc(C(=O)O)c(C)c3c(=O)[nH]2)nc2ccccc21	-8.9	-1.5	-0.2
17	COCCn1c(SCc2nc3sc(C(=O)OC)c(C)c3c(=O)[nH]2)nc2ccccc21	-11.5	-0.1	1.5
18	O=C(C[C@@H]1CC[C@@H](NC(=O)Nc2ccccc2F)[C@@H](CO)O1)NCc1ccc(Cl)cc1	8.0	x	x
19	Cc1ccc(CNC(=O)c2ccc(CS(=O)Cc3ccccc3Cl)o2)cc1 (stereo not given)	5.0	-1.3	0.5
20	CCOc1ccc(CCNC(=O)c2ccc(CS(=O)Cc3ccccc3Cl)o2)cc1 (stereo not given)	8.2	-1.4	1.5
21	CCOc1ccc(CCNC(=O)c2ccc(CS(=O)Cc3ccc(Cl)cc3)o2)cc1 (stereo not given)	-8.6	-1.8	-4.6
22	O=C(NCc1ccc2c(c1)OCO2)c1ccc(CS(=O)Cc2cccc(Cl)c2)o1 (stereo not given)	-0.8	1.4	3.4
23	Cc1ccc(CS(=O)Cc2ccc(C(=O)NCc3ccccc3Cl)o2)cc1 (stereo not given)	7.2	-1.8	5.8
24	Cc1ccccc1CS(=O)(=O)c1nnc([C@H](Cc2ccccc2)NC(=O)OC(C)(C)C)o1	-15.3	-0.7	45.7*

nr	MC4R antagonist	ALR inh	NALP1 inh
13	x	x	x
14	x	x	x
15	x	x	x
16	10.9	97.5*	5.9
17	4.8	-6.6	5.3
18	x	x	x
19	3.5	98.8*	-2.6
20	3.2	98.1*	24.4
21	1.1	0.3	5.8
22	-1.7	93.8*	17.0
23	1.4	-1.8	0.6
24	18.6	50.4	13.2

Next section
nr	compound	Yeast UUG start	MC4R barr agon	HDAC3 inhib
25	CC(C)(C)OC(=O)N[C@@H](Cc1ccccc1)c1nnc(S(=O)(=O)Cc2ccccc2)o1	x	x	75.5*
26	CCCN1C[C@@H](C)[C@@H](OC)CN(C)C(=O)c2cc(NC(=O)Nc3c(C)noc3C)ccc2OC[C@@H]1C	-10.5	x	x
27	C[C@@H]1CN([C@@H](C)CO)C(=O)Cc2cc(NS(=O)(=O)c3cccs3)ccc2O[C@@H]1CN(C)Cc1ccc(Oc2ccccc2)cc1	15.8	x	x
28	C[C@H](CO)N1C[C@H](C)[C@H](CN(C)C)Oc2ncc(-c3cccc(F)c3)cc2C1=O	6.7	x	x
29	C[C@H](NC(=O)C[C@H]1C[C@@H]2c3cc(NC(=O)C4CCC4)ccc3O[C@@H]2[C@@H](CO)O1)c1ccccc1	8.8	x	x
30	CSc1sc(-c2n[nH]c(=S)n2C)c2c1C=CCC2	-18.4	1.1	34.4*
31	Cn1c(-c2ccc(C(C)(C)C)cc2)n[nH]c1=S	-21.8	-2.5	-4.5
32	O=C(NNC1=C(C(=O)C(F)(F)F)CCC1)c1ccccc1O	x	-1.3	20.9
33	O=C(NNC1=C(C(=O)C(F)(F)F)CCC1)c1ccccc1Cl	-22.1	-2.4	12.8
34	Nc1ccccc1C(=O)NNC1=C(C(=O)C(F)(F)F)CCC1	-9.3	-1.8	45.9*
35	C/C=C/c1cnc2c(c1)C(=O)N([C@@H](C)CO)C[C@@H](C)[C@@H](CN(C)C(=O)C1CCCCC1)O2	-3.8	x	x
36	C/C(=N\Nc1ccccn1)c1ccc(C#N)cc1	x	-0.2	5.0

nr	MC4R antagonist	ALR inh	NALP1 inh
25	x	6.0	-5.2
26	x	x	x
27	x	x	x
28	x	x	x
29	x	x	x
30	10.8	-63.6	x
31	6.3	10.4	-17.6
32	-1.8	86.8*	-17.1
33	9.1	x	-13.0
34	-1.0	47.1	-18.0
35	x	x	x
36	-8.0	0.3	18.4

Pulled one by one from above:
nr	compound	Yeast UUG start	MC4R barr agon	HDAC3 inhib
32	O=C(NNC1=C(C(=O)C(F)(F)F)CCC1)c1ccccc1O	x	-1.3	20.9
33	O=C(NNC1=C(C(=O)C(F)(F)F)CCC1)c1ccccc1Cl	-22.1	-2.4	12.8
31	Cn1c(-c2ccc(C(C)(C)C)cc2)n[nH]c1=S	-21.8	-2.5	-4.5

nr	MC4R antagonist	ALR inh	NALP1 inh
32	-1.8	86.8*	-17.1
33	9.1	x	-13.0
31	6.3	10.4	-17.6

Arranged by number of heavy atoms (falling): some entries from above.
nr	compound	Yeast UUG start	MC4R barr agon	HDAC3 inhib
29	C[C@H](NC(=O)C[C@H]1C[C@@H]2c3cc(NC(=O)C4CCC4)ccc3O[C@@H]2[C@@H](CO)O1)c1ccccc1	8.8	x	x
28	C[C@H](CO)N1C[C@H](C)[C@H](CN(C)C)Oc2ncc(-c3cccc(F)c3)cc2C1=O	6.7	x	x
30	CSc1sc(-c2n[nH]c(=S)n2C)c2c1C=CCC2	-18.4	1.1	34.4*

nr	MC4R antagonist	ALR inh	NALP1 inh
29	x	x	x
28	x	x	x
30	10.8	-63.6	x

Carrying on:
nr	compound	Yeast UUG start	MC4R barr agon	HDAC3 inhib
37	C/C(=N\Nc1ccccn1)c1cccs1	x	-0.2	5.7
38	C/C(=N\Nc1ccccn1)c1ccc(OC(F)F)cc1	x	-1.0	3.1
39	C/C=C/c1ccc([C@@H]2[C@@H](CO)N(C(C)=O)[C@@H]2CNC(=O)CC2CC2)cc1	-4.3	x	x
40	O=C(N/N=C/c1ccncc1)c1ccccn1	-15.9	-0.4	6.6
41	CN(C)c1ccc(/C=N/NC(=O)c2ccn(C)n2)cc1	x	0.8	-0.7
42	CN(C)c1ccc(/C=N/NC(=O)c2ccccn2)cc1	x	-2.4	4.5
43	CN(C)c1ccc(C=NNC(=O)c2cccnc2)cc1	x	0.3	x
44	Cn1ccc(C(=O)N/N=C/c2cccnc2)n1	1.4	-0.5	0.3
45	CN(C)c1ccc(/C=N/NC(=O)c2ccco2)cc1	-13.8	-2.5	8.4
46	CN(C)c1ccc(/C=N/NC(=O)c2ccnn2C)cc1	x	-2.0	12.3
47	CCNC(=O)C[C@@H]1CC[C@H]2[C@H](COc3ccc(NC(=O)c4ccccc4)cc3C(=O)N2C)O1	4.7	x	x

nr	MC4R antagonist	ALR inh	NALP1 inh
37	4.0	99.1*	1.4
38	-3.0	89.0*	3.8
39	x	x	x
40	2.1	-17.0	-14.3
41	-16.0	94.3*	-4.2
42	14.9	87.5*	-61.2
43	-22.9	x	x
44	11.4	0.9	26.8
45	-15.5	98.6*	22.7
46	-1.2	98.6*	11.6
47	x	x	x
